{
  "source": "patent US20180098959A1",
  "about": "“METHODS FOR TREATING CANCER” (BOSTON BIOMEDICAL, INC., priority 2015, published 2018)",
  "origin": "cited, not measured here",
  "tested_on": "mCRC",
  "conditions": "Single Agent; panitumumab value for K-Ras WT; cited from earlier work",
  "data": [
    {"substance": "cetuximab", "values": [
      {"measurement": "Historical DCR (in Evaluable patients with mCRC)", "result": "30-40%"}
    ]}
  ]
}
